How the values were obtained:
Pim-1 = Pim-1 (Homo sapiens (Human), UniProt P11309); experiment: Pim-Mn enzyme assay (HTRF, 384-well), Pim-1; assay type: biochemical; details: Pim-1 enzyme 5 pM, ATP 1.5 μM, BAD (S112) 0.5 μM, 22-point curve, read-out: Pim-1-Mn IC50 IP
Pim-2 = Pim-2 (Homo sapiens (Human), UniProt Q9P1W9); experiment: Pim-Mn enzyme assay (HTRF, 384-well), Pim-2; assay type: biochemical; details: Pim-2 enzyme 0.5 pM, ATP 1.5 μM, BAD (S112) 0.5 μM, 22-point curve, read-out: Pim-2-Mn IC50 IP

Amino acid sequences for entries named in this document (tags omitted). A change or cut given only in a name is not applied to a line headed by its entry.
UniProt P11309, whole entry: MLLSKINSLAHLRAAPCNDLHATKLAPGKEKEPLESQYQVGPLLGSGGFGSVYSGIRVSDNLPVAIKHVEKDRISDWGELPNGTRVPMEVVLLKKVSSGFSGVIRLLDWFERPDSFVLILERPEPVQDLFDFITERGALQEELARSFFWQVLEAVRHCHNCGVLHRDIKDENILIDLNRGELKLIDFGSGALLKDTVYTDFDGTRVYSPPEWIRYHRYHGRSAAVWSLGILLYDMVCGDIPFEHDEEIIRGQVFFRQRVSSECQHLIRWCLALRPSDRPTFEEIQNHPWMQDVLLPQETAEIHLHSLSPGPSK
UniProt Q9P1W9: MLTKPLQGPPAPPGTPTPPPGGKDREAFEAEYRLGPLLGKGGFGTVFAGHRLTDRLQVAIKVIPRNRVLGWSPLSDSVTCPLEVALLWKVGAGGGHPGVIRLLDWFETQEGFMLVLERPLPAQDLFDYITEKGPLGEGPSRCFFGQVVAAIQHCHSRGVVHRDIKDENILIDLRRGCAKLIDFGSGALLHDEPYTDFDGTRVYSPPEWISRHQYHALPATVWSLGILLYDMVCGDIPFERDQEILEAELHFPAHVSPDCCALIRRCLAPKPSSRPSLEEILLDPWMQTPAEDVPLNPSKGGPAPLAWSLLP

Compound	IC50 (Pim-1) [nM]	IC50 (Pim-2) [nM]
Cc1nc2cccc(-c3cc4c([nH]3)CCNC4=O)c2nc1CC(C)(C)C [Example 272, 2-(3-(2,2-dimethylpropyl)-2-methyl-5-quinoxalinyl)-1,5,6,7-tetrahydro-4H-pyrrolo[3,2-c]pyridin-4-one]	6.9	–
CC(=O)N[C@@H]1CC[C@@H]1Nc1nc2c(-c3cc4c([nH]3)CCNC4=O)cccc2nc1C (single isomer, unassigned) [Example 59, N-(cis-2-((3-methyl-8-(4-oxo-4,5,6,7-tetrahydro-1H-pyrrolo[3,2-c]pyridin-2-yl)-2-quinoxalinyl)amino)cyclobutyl)acetamide]	19	25.7
Cc1nc2cccc(-c3cc4c([nH]3)CCNC4=O)c2nc1NC1CCCOC1 (single isomer, unassigned) [Example 208, 2-(2-methyl-3-((tetrahydro-2H-pyran-3-yl)amino)quinoxalin-5-yl)-6,7-dihydro-1H-pyrrolo[3,2-c]pyridin-4(5H)-one]	2.7	–
Cc1nc2cccc(-c3cc4c([nH]3)CCNC4=O)c2nc1NC1CCS(=O)(=O)C1 (racemic) [Example 74, 2-(3-(((±)-1,1-dioxidotetrahydro-3-thiophenyl)amino)-2-methyl-5-quinoxalinyl)-1,5,6,7-tetrahydro-4H-pyrrolo[3,2-c]pyridin-4-one]	22.1	20.5
Cc1nc2cccc(-c3[nH]c4c(c3Cl)C(=O)NCC4)c2nc1NC(C)(C)C [Example 348, 2-(3-(tert-butylamino)-2-methyl-5-quinoxalinyl)-3-chloro-1,5,6,7-tetrahydro-4H-pyrrolo[3,2-c]pyridin-4-one]	0.455	0.454
CC(=O)N[C@@H]1CC[C@@H]1Nc1nc2c(-c3cc4c([nH]3)CCNC4=O)cccc2nc1C (racemic) [Example 56, rac-N-(cis-2-((3-methyl-8-(4-oxo-4,5,6,7-tetrahydro-1H-pyrrolo[3,2-c]pyridin-2-yl)-2-quinoxalinyl)amino)cyclobutyl)acetamide]	22.7	38.3
C[C@H]1NC(=O)c2cc(-c3cccc4c(=O)[nH]c(N(C)C(C)(C)C)nc34)[nH]c21 [Example 407, 2-(tert-butyl(methyl)amino)-8-((6R)-6-methyl-4-oxo-1,4,5,6-tetrahydropyrrolo[3,4-b]pyrrol-2-yl)-4(3H)-quinazolinone]	0.18	–
Cc1nc2cccc(-c3cc4c([nH]3)[C@@H](C)NC4=O)c2nc1N[C@H]1CCC[C@@H](NCC(F)(F)F)C1 [Example 487, (6R)-6-methyl-2-(2-methyl-3-(((1S,3R)-3-((2,2,2-trifluoroethyl)amino)cyclohexyl)amino)-5-quinoxalinyl)-5,6-dihydropyrrolo[3,4-b]pyrrol-4(1H)-one]	–	0.267
CC(C)(C)Nc1nc2c(-c3cc4c([nH]3)CCNC4=O)cccc2nc1C=O [Example 282, 3-(tert-butylamino)-5-(4-oxo-4,5,6,7-tetrahydro-1H-pyrrolo[3,2-c]pyridin-2-yl)-2-quinoxalinecarbaldehyde]	–	11.8
CC(=O)N1CCc2[nH]c(-c3cccc4nc(C)c(NC(C)(C)C)nc34)cc2C1=O [Example 315, 5-acetyl-2-(3-(tert-butylamino)-2-methylquinoxalin-5-yl)-6,7-dihydro-1H-pyrrolo[3,2-c]pyridin-4(5H)-one]	–	45.4
C[C@H]1NC(=O)c2cc(-c3cccc4c(=O)n(C)c(N[C@H]5CCC[C@@H](N)C5)nc34)[nH]c21 (racemic) [Example 506, (rac)-2-(((cis)-3-aminocyclohexyl)amino)-3-methyl-8-((6R)-6-methyl-4-oxo-1,4,5,6-tetrahydropyrrolo[3,4-b]pyrrol-2-yl)-4(3H)-quinazolinone]	0.2	–
Cc1nc2ccc(F)c(-c3cc4c([nH]3)[C@H](C)NC4=O)c2nc1NC(C)(C)C [Example 298, (6S)-2-(3-(tert-butylamino)-6-fluoro-2-methyl-5-quinoxalinyl)-6-methyl-5,6-dihydropyrrolo[3,4-b]pyrrol-4(1H)-one]	–	0.201

Source: patent US9394297B2, “Amides as pim inhibitors” (AMGEN INC., priority 2012, dated 2016)
